Test results as given in ChEMBL document CHEMBL4507276, “Data for DCP probe BI 665915” (2021).

By UniProt entry, the sequences of proteins in these tests, tags left out. Where a name states a change or a piece, a line headed by the entry shows the natural chain unless it says otherwise.
UniProt Q16288, whole entry, looked up: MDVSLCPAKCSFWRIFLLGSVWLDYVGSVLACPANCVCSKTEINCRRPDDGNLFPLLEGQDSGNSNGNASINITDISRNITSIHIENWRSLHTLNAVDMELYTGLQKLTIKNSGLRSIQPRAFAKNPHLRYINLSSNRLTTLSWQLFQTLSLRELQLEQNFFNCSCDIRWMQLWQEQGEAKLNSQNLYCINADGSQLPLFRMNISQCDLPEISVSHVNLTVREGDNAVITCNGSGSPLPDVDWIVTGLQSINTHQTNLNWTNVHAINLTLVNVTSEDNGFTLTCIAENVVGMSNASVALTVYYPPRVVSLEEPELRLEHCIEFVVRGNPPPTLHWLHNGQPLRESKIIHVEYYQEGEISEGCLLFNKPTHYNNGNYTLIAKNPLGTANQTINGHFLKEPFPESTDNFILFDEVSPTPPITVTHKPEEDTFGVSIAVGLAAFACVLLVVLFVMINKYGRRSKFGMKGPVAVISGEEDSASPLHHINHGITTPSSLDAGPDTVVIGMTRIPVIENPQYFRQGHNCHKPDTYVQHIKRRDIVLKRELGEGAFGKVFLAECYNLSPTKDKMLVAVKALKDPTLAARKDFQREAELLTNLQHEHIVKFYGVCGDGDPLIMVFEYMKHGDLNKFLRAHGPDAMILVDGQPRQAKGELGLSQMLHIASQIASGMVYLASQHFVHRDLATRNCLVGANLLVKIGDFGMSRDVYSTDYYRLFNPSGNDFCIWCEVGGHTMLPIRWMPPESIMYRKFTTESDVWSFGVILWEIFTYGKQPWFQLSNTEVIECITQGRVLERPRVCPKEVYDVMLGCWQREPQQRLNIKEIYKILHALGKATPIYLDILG
UniProt P17948, whole entry: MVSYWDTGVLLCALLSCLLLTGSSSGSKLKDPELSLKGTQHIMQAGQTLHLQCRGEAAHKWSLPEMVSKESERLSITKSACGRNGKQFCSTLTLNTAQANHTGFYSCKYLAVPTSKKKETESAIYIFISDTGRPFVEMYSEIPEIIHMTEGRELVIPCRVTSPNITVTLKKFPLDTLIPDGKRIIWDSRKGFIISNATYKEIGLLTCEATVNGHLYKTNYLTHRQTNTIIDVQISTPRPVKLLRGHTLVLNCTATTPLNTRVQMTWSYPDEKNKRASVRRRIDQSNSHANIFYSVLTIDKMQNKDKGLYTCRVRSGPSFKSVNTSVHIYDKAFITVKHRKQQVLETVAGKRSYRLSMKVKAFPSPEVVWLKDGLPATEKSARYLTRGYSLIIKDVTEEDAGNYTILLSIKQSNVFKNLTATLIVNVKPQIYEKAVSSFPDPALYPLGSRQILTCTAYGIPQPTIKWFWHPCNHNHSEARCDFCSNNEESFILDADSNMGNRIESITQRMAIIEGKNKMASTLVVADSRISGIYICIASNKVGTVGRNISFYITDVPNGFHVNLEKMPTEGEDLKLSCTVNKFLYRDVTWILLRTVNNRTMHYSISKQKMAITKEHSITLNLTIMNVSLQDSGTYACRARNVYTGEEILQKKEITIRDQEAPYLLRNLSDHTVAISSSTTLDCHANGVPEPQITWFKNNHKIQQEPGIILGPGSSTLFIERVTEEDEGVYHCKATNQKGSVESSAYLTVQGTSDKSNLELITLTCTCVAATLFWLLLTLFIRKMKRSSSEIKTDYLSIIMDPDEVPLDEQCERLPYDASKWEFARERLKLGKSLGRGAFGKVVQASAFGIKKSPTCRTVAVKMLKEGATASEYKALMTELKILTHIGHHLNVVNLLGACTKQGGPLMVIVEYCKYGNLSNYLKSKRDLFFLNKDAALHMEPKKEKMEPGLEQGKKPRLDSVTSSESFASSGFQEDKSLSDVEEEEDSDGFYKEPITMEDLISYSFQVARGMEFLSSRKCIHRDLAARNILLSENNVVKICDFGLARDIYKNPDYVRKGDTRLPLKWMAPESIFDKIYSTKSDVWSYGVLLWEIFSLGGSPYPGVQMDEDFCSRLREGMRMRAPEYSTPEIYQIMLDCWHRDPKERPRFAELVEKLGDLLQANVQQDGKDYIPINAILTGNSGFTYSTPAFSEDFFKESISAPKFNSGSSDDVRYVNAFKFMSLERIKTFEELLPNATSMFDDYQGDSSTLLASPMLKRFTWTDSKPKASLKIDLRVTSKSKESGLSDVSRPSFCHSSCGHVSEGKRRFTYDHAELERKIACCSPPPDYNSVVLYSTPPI
UniProt P00519, whole entry: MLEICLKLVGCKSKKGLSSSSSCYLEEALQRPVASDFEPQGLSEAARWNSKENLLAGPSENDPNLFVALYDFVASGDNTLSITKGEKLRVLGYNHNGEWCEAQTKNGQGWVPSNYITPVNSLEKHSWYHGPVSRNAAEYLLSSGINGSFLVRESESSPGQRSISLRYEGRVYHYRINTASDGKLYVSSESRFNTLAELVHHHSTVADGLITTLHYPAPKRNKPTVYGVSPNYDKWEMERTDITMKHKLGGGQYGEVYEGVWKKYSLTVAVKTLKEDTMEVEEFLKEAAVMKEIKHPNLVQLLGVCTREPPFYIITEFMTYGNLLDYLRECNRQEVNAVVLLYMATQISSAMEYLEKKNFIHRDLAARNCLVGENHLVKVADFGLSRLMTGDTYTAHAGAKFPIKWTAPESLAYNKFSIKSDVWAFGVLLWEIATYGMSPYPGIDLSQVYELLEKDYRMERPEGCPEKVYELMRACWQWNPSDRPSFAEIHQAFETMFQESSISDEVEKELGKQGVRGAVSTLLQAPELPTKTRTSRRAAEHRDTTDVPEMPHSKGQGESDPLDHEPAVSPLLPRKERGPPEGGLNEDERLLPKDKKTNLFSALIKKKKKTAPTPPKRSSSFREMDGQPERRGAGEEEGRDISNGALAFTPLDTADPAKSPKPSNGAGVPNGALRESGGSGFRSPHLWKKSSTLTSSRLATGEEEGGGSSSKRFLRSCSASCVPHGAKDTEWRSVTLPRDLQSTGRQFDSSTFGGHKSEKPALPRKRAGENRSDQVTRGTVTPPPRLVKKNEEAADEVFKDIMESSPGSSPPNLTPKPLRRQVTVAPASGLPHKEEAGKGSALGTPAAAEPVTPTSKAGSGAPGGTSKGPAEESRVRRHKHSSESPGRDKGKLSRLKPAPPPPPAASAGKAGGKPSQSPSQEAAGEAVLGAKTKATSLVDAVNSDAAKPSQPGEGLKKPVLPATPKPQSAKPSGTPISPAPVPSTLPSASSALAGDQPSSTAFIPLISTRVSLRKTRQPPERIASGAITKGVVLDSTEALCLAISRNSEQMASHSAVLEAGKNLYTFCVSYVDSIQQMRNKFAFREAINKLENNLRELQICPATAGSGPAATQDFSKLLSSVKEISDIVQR
UniProt Q04759: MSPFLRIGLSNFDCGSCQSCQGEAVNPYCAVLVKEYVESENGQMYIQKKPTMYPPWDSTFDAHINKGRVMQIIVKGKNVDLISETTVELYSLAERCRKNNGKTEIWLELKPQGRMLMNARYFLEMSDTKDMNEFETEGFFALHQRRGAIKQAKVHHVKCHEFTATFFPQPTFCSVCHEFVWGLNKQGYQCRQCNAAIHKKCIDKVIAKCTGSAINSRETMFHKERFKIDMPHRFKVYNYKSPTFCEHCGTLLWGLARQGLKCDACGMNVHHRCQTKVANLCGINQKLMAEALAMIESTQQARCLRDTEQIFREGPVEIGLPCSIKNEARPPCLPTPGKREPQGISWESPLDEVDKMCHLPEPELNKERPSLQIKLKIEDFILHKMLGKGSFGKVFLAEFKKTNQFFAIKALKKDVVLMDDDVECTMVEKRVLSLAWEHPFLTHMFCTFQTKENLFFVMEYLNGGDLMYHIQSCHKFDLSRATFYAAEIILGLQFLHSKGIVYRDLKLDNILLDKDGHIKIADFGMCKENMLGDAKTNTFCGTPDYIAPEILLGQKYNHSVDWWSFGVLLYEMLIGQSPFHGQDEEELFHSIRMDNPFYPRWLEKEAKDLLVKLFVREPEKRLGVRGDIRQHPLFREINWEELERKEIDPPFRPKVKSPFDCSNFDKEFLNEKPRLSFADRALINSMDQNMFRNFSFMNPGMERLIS
UniProt O43283: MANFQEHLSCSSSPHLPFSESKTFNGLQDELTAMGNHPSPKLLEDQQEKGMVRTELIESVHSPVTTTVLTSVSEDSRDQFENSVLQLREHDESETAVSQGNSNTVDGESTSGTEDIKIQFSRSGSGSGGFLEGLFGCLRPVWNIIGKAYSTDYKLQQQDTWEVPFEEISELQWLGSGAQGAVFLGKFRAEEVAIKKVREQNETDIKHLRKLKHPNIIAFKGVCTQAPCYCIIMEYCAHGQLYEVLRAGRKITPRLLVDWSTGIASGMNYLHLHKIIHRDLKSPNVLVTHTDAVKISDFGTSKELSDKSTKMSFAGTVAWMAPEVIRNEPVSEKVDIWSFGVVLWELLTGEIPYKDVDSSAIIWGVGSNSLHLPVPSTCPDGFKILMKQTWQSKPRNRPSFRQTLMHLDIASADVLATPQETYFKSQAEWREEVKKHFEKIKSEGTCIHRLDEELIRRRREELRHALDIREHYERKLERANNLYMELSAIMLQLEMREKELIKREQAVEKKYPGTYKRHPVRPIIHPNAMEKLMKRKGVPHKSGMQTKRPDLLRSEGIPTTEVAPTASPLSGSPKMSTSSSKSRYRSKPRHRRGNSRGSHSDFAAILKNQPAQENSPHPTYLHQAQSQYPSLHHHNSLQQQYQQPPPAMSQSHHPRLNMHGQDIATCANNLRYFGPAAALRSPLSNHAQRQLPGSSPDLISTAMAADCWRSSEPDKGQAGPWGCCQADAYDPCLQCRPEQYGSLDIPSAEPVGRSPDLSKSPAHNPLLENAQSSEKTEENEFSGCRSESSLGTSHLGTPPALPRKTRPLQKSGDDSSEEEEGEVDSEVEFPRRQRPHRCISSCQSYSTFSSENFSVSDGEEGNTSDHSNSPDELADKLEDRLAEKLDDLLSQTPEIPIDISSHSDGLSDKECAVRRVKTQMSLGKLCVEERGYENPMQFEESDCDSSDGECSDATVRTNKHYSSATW
UniProt Q02156: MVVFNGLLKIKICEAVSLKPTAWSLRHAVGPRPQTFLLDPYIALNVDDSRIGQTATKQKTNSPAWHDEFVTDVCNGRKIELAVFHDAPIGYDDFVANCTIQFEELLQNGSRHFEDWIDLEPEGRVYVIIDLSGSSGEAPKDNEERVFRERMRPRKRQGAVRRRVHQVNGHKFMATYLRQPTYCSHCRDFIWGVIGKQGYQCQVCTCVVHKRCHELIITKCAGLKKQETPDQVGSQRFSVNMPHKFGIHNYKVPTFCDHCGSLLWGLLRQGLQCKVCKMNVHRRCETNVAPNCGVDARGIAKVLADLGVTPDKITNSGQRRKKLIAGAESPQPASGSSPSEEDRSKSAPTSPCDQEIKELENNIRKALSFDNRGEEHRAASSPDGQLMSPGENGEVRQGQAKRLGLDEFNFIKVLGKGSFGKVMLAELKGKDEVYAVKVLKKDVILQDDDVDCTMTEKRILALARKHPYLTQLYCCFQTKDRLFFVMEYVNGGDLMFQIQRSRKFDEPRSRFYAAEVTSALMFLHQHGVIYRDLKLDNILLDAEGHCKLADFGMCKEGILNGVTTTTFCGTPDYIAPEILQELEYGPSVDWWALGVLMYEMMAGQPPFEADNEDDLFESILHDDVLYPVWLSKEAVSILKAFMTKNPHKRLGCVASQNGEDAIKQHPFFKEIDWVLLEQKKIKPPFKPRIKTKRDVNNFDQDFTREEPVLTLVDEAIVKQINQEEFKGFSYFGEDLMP
UniProt Q9UBF8: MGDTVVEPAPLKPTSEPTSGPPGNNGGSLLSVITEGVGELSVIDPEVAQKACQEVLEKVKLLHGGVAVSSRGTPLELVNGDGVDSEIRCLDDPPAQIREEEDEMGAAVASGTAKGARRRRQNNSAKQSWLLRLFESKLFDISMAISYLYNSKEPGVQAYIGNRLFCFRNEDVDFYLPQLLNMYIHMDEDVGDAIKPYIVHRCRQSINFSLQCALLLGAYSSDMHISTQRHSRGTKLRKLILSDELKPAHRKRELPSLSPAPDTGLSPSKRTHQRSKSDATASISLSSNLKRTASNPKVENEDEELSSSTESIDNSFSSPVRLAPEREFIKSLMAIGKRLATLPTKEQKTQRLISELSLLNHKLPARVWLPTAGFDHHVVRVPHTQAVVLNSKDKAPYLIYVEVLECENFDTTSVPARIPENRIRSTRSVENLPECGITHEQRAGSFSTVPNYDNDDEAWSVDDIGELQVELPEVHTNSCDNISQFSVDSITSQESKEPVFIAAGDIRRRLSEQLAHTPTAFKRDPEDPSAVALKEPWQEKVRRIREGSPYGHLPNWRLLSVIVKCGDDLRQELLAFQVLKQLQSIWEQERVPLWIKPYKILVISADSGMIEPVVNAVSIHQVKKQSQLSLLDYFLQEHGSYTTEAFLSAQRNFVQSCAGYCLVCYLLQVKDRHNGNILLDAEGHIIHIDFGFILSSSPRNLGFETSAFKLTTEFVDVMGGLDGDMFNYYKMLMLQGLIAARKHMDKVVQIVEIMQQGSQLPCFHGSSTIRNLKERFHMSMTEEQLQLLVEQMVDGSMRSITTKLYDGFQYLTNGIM

Key:
[1] = target: NT-3 growth factor receptor (Homo sapiens) (UniProt Q16288); details: Compound concentration 1000.0 nM
[2] = target: Vascular endothelial growth factor receptor 1 (Homo sapiens) (UniProt P17948); assay: FLT1 Invitrogen selectivity data (BI); details: Compound concentration 3.0 uM
[3] = target: Ephrin type-A receptor 3 (Homo sapiens) (UniProt P29320); assay: EPHA3 Invitrogen selectivity data (BI); details: Compound concentration 3.0 uM
[4] = target: Serine/threonine-protein kinase TNNI3K (Homo sapiens) (UniProt Q59H18); details: Compound concentration 1000.0 nM
[5] = target: Ephrin type-A receptor 5 (Homo sapiens) (UniProt P54756); assay: EPHA5 Invitrogen selectivity data (BI); details: Compound concentration 3.0 uM
[6] = target: Serine/threonine-protein kinase MARK1 (Homo sapiens) (UniProt Q9P0L2); details: Compound concentration 1000.0 nM
[7] = target: Dual specificity mitogen-activated protein kinase kinase 1 (Homo sapiens) (UniProt Q02750); assay: MAP2K1_S_D Invitrogen selectivity data (BI); details: Compound concentration 3.0 uM
[8] = target: Aurora kinase B (Homo sapiens) (UniProt Q96GD4); assay: AURKB Invitrogen selectivity data (BI); details: Compound concentration 3.0 uM
[9] = target: Tyrosine-protein kinase JAK2 (Homo sapiens) (UniProt O60674); assay: JAK2 JH1 JH2 Invitrogen selectivity data (BI); details: Compound concentration 3.0 uM
[10] = target: Serine/threonine-protein kinase VRK2 (Homo sapiens) (UniProt Q86Y07); details: Compound concentration 1000.0 nM
[11] = target: Atypical kinase COQ8B, mitochondrial (Homo sapiens) (UniProt Q96D53); details: Compound concentration 1000.0 nM
[12] = test system: Imidazoline I2 binding site (Rattus norvegicus); assay: I2/CENTR/R Eurofins-Panlabs selectivity data (BI); details: Compound concentration 10.0 uM
[13] = target: Tyrosine-protein kinase ABL1 (Homo sapiens) (UniProt P00519); details: Compound concentration 1000.0 nM
[14] = target: Protein kinase C theta type (Homo sapiens) (UniProt Q04759); details: Compound concentration 1000.0 nM
[15] = target: Mitogen-activated protein kinase kinase kinase 13 (Homo sapiens) (UniProt O43283); details: Compound concentration 1000.0 nM
[16] = target: Proto-oncogene tyrosine-protein kinase receptor Ret (Homo sapiens) (UniProt P07949); assay: RET Invitrogen selectivity data (BI); details: Compound concentration 3.0 uM
[17] = target: Serine/threonine-protein kinase TBK1 (Homo sapiens) (UniProt Q9UHD2); assay: TBK1 Invitrogen selectivity data (BI); details: Compound concentration 3.0 uM
[18] = target: Protein kinase C epsilon type (Homo sapiens) (UniProt Q02156); details: Compound concentration 1000.0 nM
[19] = target: Prostaglandin E2 receptor EP4 subtype (Homo sapiens) (UniProt P35408); assay: PEP4_HU Eurofins-Panlabs selectivity data (BI); details: Compound concentration 10.0 uM
[20] = target: Tyrosine-protein kinase ZAP-70 (Homo sapiens) (UniProt P43403); assay: ZAP70_CE Cerep selectivity data (BI); details: Compound concentration 20.0 uM
[21] = target: Serine/threonine-protein kinase D1 (Homo sapiens) (UniProt Q15139); assay: PRKD1 Invitrogen selectivity data (BI); details: Compound concentration 3.0 uM
[22] = target: Macrophage colony-stimulating factor 1 receptor (Homo sapiens) (UniProt P07333); details: Compound concentration 1000.0 nM
[23] = target: 3-phosphoinositide-dependent protein kinase 1 (Homo sapiens) (UniProt O15530); assay: PDK1 Invitrogen selectivity data (BI); details: Compound concentration 3.0 uM
[24] = target: MAP kinase-activated protein kinase 2 (Homo sapiens) (UniProt P49137); details: Compound concentration 1000.0 nM
[25] = target: Death-associated protein kinase 3 (Homo sapiens) (UniProt O43293); details: Compound concentration 1000.0 nM
[26] = target: Ribosomal protein S6 kinase alpha-5 (Homo sapiens) (UniProt O75582); details: Compound concentration 1000.0 nM
[27] = target: Mitogen-activated protein kinase kinase kinase 14 (Homo sapiens) (UniProt Q99558); details: Compound concentration 1000.0 nM
[28] = target: Phosphatidylinositol 4-kinase beta (Homo sapiens) (UniProt Q9UBF8); details: Compound concentration 1000.0 nM
[29] = target: Cyclin-dependent kinase-like 1 (Homo sapiens) (UniProt Q00532); details: Compound concentration 1000.0 nM

In the case of `CN(C)C(=O)Cn1cc(-c2nc([C@@](C)(c3ccc(-c4cnc(N)nc4)cc3)C3CC3)no2)cn1` [BI 665915], the residual activity [1] was 92%, the residual activity [2] was 92% and the residual activity [3] was 92%. For the same compound, the residual activity [4] was 92%, the residual activity [5] was 92% and the residual activity [6] was 92%. For the same compound, the residual activity [7] was 92%, the residual activity [8] was 92% and the residual activity [9] was 92%. For the same compound, the residual activity [10] was 92%, the residual activity [11] was 92% and the residual activity [12] was 92%. The residual activity [13] was 92%, the residual activity [14] was 92% and the residual activity [15] was 92%. For the same compound, the residual activity [16] was 56%, the residual activity [17] was 92% and the residual activity [18] was 44%. The residual activity [19] was 92%, the residual activity [20] was 92% and the residual activity [21] was 92%. It also gave a residual activity [22] of 92%, a residual activity [23] of 92% and a residual activity [24] of 92%. For the same compound, the residual activity [25] was 92%, the residual activity [26] was 92% and the residual activity [27] was 92%. The residual activity [28] was 92% and the residual activity [29] was 92%.
